High-throughput results deposited in PubChem by Broad Institute.
E-selectin induc – E-selectin induction on HUVECs; activation, % at 7.58 µM; 0.37% of 260,000 active; HUVEC E-selectin immunofluorescence imaging; normalized: neutral wells 0, TNF-alpha wells 100; AID 686992;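 active means mean E-selectin-positive cell signal at least 10% of the positive control, reached in at least 60% of replicates, without over 20% cell loss; inconclusive means no rule given, readout overlaps actives, possibly toxicity-flagged; inactive means the rest, including those meeting only one limit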
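Test system – human umbilical vein endothelial cells (HUVEC), E-selectin induction · Input – 3,000 HUVEC seeded per well · Buffer or medium – EGM-2, gelatin · Compound dosing – single-point compound dose · Detection – immunofluorescence imaging · Measure – percent E-selectin-positive cells · Controls – TNF-alpha high, DMSO low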
esBAF inh – inhibitors of esBAF chromatin remodeling in mouse ES cells | reporter increase, % at 12.5 µM | 2% of 350,000 active | Bmi1-luciferase knock-in reporter, 24 h; 100% = twice the neutral-well signal; in the data active means activation above about 40%; inconclusive means no clear call, values can overlap the other calls;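 further: 0% = median of the plate's neutral control wells and 100% = double that signal; a rise in the Bmi1 reporter signal indicates esBAF inhibition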
Statin myotox sup – protects C2C12 myotubes from simvastatin toxicity; 0.78% of 330,000 active; AID 602340; ATP luminescence, 48 h; scaled: DMSO 0, geranylgeraniol control 100; rescue of ATP level, % at 7.49 µM;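 active means mean ATP rescue above about 67%, or every replicate alone reaching that limit, limit read from the data, passing the limit was not always enough; inconclusive means no clear call, values can overlap the other calls; inactive means mean under the limit and some replicate under it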;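 further: myotubes were challenged with 10 µM simvastatin during compound exposure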
Yeast UUG start – modulators of start codon recognition fidelity in yeast. activity score, % at 18.7 µM. S. cerevisiae UUG-firefly luciferase reporter, luminescence/redox ratio. 350,000 compounds, 0.13% hits;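 active means replicate mean at a twofold rise or more, about +100% in these data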;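 further: firefly luciferase made from a UUG start codon reports start codon fidelity; reporter light over untreated wells divided by growth signal over untreated wells; some hits fall short of that in this replicate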
PglD DTNB – PglD (C. jejuni) enzyme inhibition | purified PglD enzyme, DTNB colorimetric CoA detection | inhibition, % at 12.5 µM | 0.098% of 360,000 active | AID 602405; in the data active means inhibition above about 16%, passing the limit was not always enough; inconclusive means no clear call, values can overlap the other calls
PGC1a acetyl inh – modulators of PGC1a acetylation | 0.17% of 350,000 active | inhibition, % at 15.6 µM | U2OS PGC1a acetylation, AlphaScreen anti-acetyl-lysine; with virally co-expressed GCN5 acetyltransferase;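 active means every replicate shows inhibition of at least 40%; inconclusive means mean inhibition at least 40% but some replicate below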;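 further: 0% = neutral control wells and 100% = positive control wells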
Starred values were filed as active, the others as inactive; ? = inconclusive; nt = no result given. This is a sample that favours compounds with a hit; in the whole collection about 2.8% have one here.

| SMILES | E-selectin induc | esBAF inh | Statin myotox sup | Yeast UUG start | PglD DTNB | PGC1a acetyl inh |
| --- | --- | --- | --- | --- | --- | --- |
| CN(C)C(=O)[C@H]1[C@H](CO)[C@H]2Cn3c(cccc3=O)[C@H]2N1C(=O)C1CCCCC1 | 1.2 | 3.7 | -2.5 | -9.5 | -0.7 | nt |
| CCCC#Cc1cnc2c(c1)C(=O)N([C@@H](C)CO)C[C@H](C)[C@@H](CN(C)C(=O)c1ccc3c(c1)OCO3)O2 | 0.7 | -1.2 | 14.7 | 0.4 | -1.1 | 19.7 |
| C[C@@H]1CN([C@@H](C)CO)C(=O)Cc2cc(NS(=O)(=O)c3ccccc3)ccc2O[C@H]1CN(C)S(=O)(=O)c1ccc(Cl)cc1 | -0.6 | -3.3 | 3.2 | 8.2 | 1.0 | -0.9 |
| O=C(Cn1cc(C(F)(F)F)cc(Cl)c1=O)NCc1ccc(F)cc1 | 0.1 | 57.6* | 1.2 | -8.0 | -4.1 | nt |
| CCNC(=O)[C@@H]1[C@@H](CO)[C@@H]2Cn3c(ccc(-c4ccccc4)c3=O)[C@@H]2N1Cc1ccccc1 | -0.2 | 3.5 | 22.3 | 13.8 | 0.0 | nt |
| COc1cc2sc3ccc(C#Cc4ccc(N)cc4)cc3c(=O)c2cc1OC | 1.4 | 1.1 | -19.0 | -14.5 | 6.4 | nt |
| COc1cc2sc3ccc(-c4ccc5[nH]ccc5c4)cc3c(=O)c2cc1OC | -0.1 | 51.2* | -2.7 | -8.2 | -2.7 | -14.9 |
| Cn1c(CCNC(=O)c2ccco2)nc2cc(NC(=O)c3ccccc3)ccc21 | nt | 45.5* | -19.1 | -13.1 | -1.8 | 7.0 |
| Cn1c(CCNC(=O)c2ccco2)nc2cc(NC(=O)c3ccco3)ccc21 | nt | 51.4* | -18.4 | -32.5 | -1.1 | -2.4 |
| Cn1c(CCNC(=O)c2ccccc2)nc2cc(NC(=O)c3ccco3)ccc21 | nt | 22.3 | -9.5 | -5.0 | -7.0 | -6.9 |
| C[C@@H]1CN([C@H](C)CO)C(=O)c2cc(NC(=O)Nc3ccc4c(c3)OCO4)ccc2O[C@@H]1CN(C)Cc1ccccc1 | -0.1 | 6.9 | -21.7 | -3.5 | -1.0 | -10.7 |
| O=C(c1ccc(F)cc1)c1ccc(N2CCCC2)cc1 | nt | 65.3* | -0.6 | nt | nt | 6.2 |
| O=C(c1ccc(F)cc1)c1ccc(N2CCCCC2)cc1 | 0.0 | 35.8 | 2.7 | -3.5 | -1.9 | 5.3 |
| COC(=O)c1ccc(COC(=O)c2ccc(C)c(S(=O)(=O)N3CCCCC3)c2)cc1 | nt | 42.7* | -5.0 | -10.6 | 8.9 | -19.4 |
| Cc1ccc(NC(=O)c2ccc(F)cc2)cc1S(=O)(=O)N1CCCCCC1 | 0.0 | 6.3 | -21.4 | nt | nt | -12.9 |
| COc1ccc(C(=O)Nc2ccc(C)c(S(=O)(=O)N3CCCCCC3)c2)cc1 | -2.9 | nt | nt | nt | nt | nt |
| Cc1ccc(C(=O)OCC(=O)N2C(C)CCCC2C)cc1S(=O)(=O)N1CCCCC1 (stereo not drawn) | 0.0 | nt | nt | nt | nt | nt |
| Cc1ccc(C(=O)Nc2ccc3cn[nH]c3c2)cc1S(=O)(=O)N1CCCCC1 | nt | 75.3* | ? | -11.0 | -5.6 | -26.6 |
| Cc1ccc(C(=O)Nc2cccc(O)c2)cc1S(=O)(=O)N1CCCCCC1 | nt | 57.3* | -23.6 | -21.2 | -1.1 | -4.9 |
| COc1ccccc1NC(=O)N(C)C[C@@H]1OCc2ccccc2-c2ccccc2C(=O)N([C@@H](C)CO)C[C@@H]1C | 1.5 | 7.8 | nt | nt | 1.6 | -11.3 |
| O=C(Cc1ccc(Br)cc1)N1CCc2ccccc2C1 | nt | 52.6* | 6.1 | -7.9 | -3.4 | -5.5 |
| Cc1ccc(/C=C/C(=O)N2CCc3ccccc3C2)cc1 | nt | 48.4* | 14.7 | -6.5 | -0.8 | 1.7 |
| O=C(/C=C/c1ccc(F)cc1)N1CCc2ccccc2C1 | 6.2 | 47.8* | 7.4 | -4.1 | -2.0 | 21.6 |
| CC(C)(C)c1ccc(/C=C/C(=O)N2CCc3ccccc3C2)cc1 | nt | -1.2 | -22.2 | -17.8 | -1.2 | -5.0 |
| CCCCC(=O)N(Cc1ccc(F)cc1)C1CCS(=O)(=O)C1 (stereo not drawn) | nt | -0.9 | 87.3* | 3.1 | -0.8 | -17.2 |
| CCC(=O)NC(c1cccs1)c1ccc2cccnc2c1O (stereo not drawn) | 6.9 | nt | nt | nt | nt | 47.4* |
| CC(C)CC(=O)NC(c1cccs1)c1ccc2cccnc2c1O (stereo not drawn) | nt | nt | nt | nt | nt | 11.7 |
| Cc1ccc(S(=O)(=O)N(CC2CO2)c2ccccc2[N+](=O)[O-])cc1 (stereo not drawn) | nt | 8.9 | -1.6 | nt | nt | 79.1* |
| O=C(Cc1ccccn1)N1CC(=O)N2[C@@H](CO)[C@H](c3ccc(C#CC4CC4)cc3)[C@@H]2C1 | -0.4 | nt | nt | nt | nt | -4.4 |
| Cc1cc(Cl)c(S(=O)(=O)Nc2ccc3c(c2)OCO3)cc1OCC(=O)NC1CCCCC1 | nt | -5.7 | -6.1 | -11.2 | 5.1 | 27.7 |
| Cc1cc(Cl)c(S(=O)(=O)Nc2ccc3c(c2)OCO3)cc1OCC(N)=O | nt | -5.0 | 100.5* | -11.0 | 1.4 | -12.6 |
| Cc1ccc(S(=O)(=O)N(C)C[C@H]2OCCCC[C@H](C)Oc3ccc(NS(=O)(=O)c4cn(C)cn4)cc3C(=O)N([C@@H](C)CO)C[C@H]2C)cc1 | nt | -5.9 | nt | -9.8 | 1.3 | 12.6 |
| CCCN(C)C[C@@H]1Oc2cc(C#C[C@@H](C)O)ccc2S(=O)(=O)N([C@H](C)CO)C[C@@H]1C | -0.4 | 4.7 | -10.4 | 7.2 | 1.2 | -6.7 |
| Cc1cc(N)n2ncc(-c3cccc(Br)c3)c2n1 | nt | 66.0* | -101.6 | -7.6 | -4.0 | -4.6 |
| Cc1cc(-c2ccncc2)n2ncc(-c3ccccc3)c2n1 | 0.2 | 16.8 | 5.9 | -30.2 | 2.7 | nt |
| Cc1cc(N)n2ncc(-c3ccccc3)c2n1 | nt | 51.4* | 0.1 | -1.8 | 5.5 | 9.1 |
| CCC(=O)N1[C@H](CNC(=O)CN2CCOCC2)[C@@H](c2ccccc2)[C@@H]1CO | -0.1 | 0.2 | -9.6 | -3.6 | 1.0 | 1.5 |
| Cc1noc(C)c1NC(=O)Nc1ccc2c(c1)CC(=O)N([C@@H](C)CO)C[C@@H](C)[C@H](CN(C)S(=O)(=O)c1c(C)noc1C)O2 | 0.0 | 2.7 | -16.9 | 0.8 | -0.1 | -3.4 |
| c1ccc(C2Oc3ccccc3C3CC(c4cccs4)=NN32)cc1 (stereo not drawn) | nt | 85.5* | 13.7 | -14.1 | 0.5 | 5.9 |
| CC(C)(C)c1cc(CCC(=O)NCc2ccccn2)cc(C(C)(C)C)c1O | 99.6* | 10.4 | 5.3 | -14.0 | -1.6 | nt |
| Oc1ccc(Cl)cc1-c1cc(-c2ccco2)[nH]n1 | nt | 11.3 | 3.3 | -33.7 | -6.1 | -18.1 |
| Oc1c(-c2cc(-c3ccco3)[nH]n2)ccc2ccccc12 | nt | 64.9* | -4.7 | -26.0 | -2.8 | -2.9 |
| Oc1ccccc1-c1cc(-c2ccco2)[nH]n1 | nt | 61.8* | -12.4 | 8.8 | -0.7 | 10.4 |
| CC(C)CC(=O)/C(=C\c1ccc(Cl)cc1Cl)n1cncn1 | nt | -16.7 | 4.3 | -32.3 | 3.0 | 60.3* |
| CC(C)CC(=O)/C(=C/c1ccc(N(C)C)cc1)n1cncn1 | -0.1 | -3.0 | -7.4 | -18.3 | -11.7 | -1.1 |
| CN(C)C(=O)[C@H]1[C@H](CO)[C@H]2Cn3c(ccc(-c4cccnc4)c3=O)[C@@H]1N2C(=O)NC1CCCC1 | 0.2 | -2.8 | 1.0 | nt | -1.7 | nt |
| CC(=O)Nc1ccc2c(c1)C(=O)N(C)[C@H]1CC[C@H](CC(=O)NCc3ccc(Cl)cc3)O[C@H]1CO2 | -0.1 | 2.6 | -9.2 | 3.9 | -35.0 | 1.0 |
